The source of these data is US6936585B2, “Corticotropin releasing factor 2 receptor agonists” (priority 2002, dated 2005).

Bounds are passed on as bounds.

The target of one assay is T1, CRF2R (Homo sapiens, UniProt Q13324).
T1 sequence (Q13324 1-411): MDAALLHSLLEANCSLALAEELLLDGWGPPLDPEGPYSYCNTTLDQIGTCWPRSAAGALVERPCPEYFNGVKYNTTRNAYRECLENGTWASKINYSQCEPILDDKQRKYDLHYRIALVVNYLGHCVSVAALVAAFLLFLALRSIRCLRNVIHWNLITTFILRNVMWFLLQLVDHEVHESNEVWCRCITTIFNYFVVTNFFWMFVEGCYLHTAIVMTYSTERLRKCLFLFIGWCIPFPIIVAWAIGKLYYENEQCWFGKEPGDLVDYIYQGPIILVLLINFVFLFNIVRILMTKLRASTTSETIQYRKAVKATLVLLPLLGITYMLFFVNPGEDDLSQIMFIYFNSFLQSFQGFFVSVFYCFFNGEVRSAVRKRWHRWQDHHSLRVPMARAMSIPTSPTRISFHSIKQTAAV
In words: CRF2R agonist activation (EC50 / Emax), called comparative CRF binding. In kind it is cell-based. Particulars: for Emax: read-out: CRF2R Emax. Put shortly:
(§1)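 CRFR-expressing cells + peptide vs vehicle; read-out cAMP (lysate assay) or CRE-linked reporter expression (luciferase, CAT, fluorescent protein, alkaline phosphatase, etc.). Signal compared against vehicle-treated cells.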

The target in the next assay is T2, CRF1R (Homo sapiens, UniProt P34998).
T2 sequence (P34998 24-415): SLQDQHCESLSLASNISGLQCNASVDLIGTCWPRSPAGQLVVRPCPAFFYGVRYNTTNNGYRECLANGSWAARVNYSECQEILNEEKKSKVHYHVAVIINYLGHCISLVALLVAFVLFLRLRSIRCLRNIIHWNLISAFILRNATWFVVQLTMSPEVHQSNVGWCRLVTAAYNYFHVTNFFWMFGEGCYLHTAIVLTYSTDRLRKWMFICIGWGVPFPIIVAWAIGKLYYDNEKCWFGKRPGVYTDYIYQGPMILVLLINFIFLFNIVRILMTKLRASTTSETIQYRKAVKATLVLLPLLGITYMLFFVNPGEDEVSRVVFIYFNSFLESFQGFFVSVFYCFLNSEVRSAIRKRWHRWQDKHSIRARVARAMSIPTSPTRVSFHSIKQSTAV
In words: CRF1R agonist activation (EC50 / Emax), called comparative CRF binding. Format: cell-based. Particulars: for Emax: read-out: CRF1R Emax; for EC50: CRF1R EC50. In a few lines:
as §1

The term Emax denotes the greatest response seen or fitted, relative to the assay's reference. As to `CC[C@H](C)[C@H](NC(=O)[C@@H](NC(=O)[C@H](CC(=O)O)NC(=O)[C@H](CC(C)C)NC(=O)[C@H](CC(C)C)NC(=O)[C@H](CC(C)C)NC(=O)[C@H](CCCNC(=N)N)NC(=O)[C@H](CC(N)=O)NC(=O)[C@H](CC(N)=O)NC(=O)[C@H](C)NC(=O)[C@H](C)NC(=O)[C@H](CCC(N)=O)NC(=O)[C@H](CCC(N)=O)NC(=O)[C@H](CCCCN)NC(=O)[C@H](CCC(=O)O)NC(=O)[C@H](CCCCN)NC(=O)[C@H](CCC(=O)O)NC(=O)[C@H](CCC(N)=O)NC(=O)[C@H](CCCCN)NC(=O)[C@H](CCC(=O)O)NC(=O)[C@@H](NC(=O)[C@H](CCC(=O)O)NC(=O)[C@@H](NC(=O)[C@H](CCSC)NC(=O)[C@H](CCCCN)NC(=O)[C@H](CCCNC(=N)N)NC(=O)[C@H](CC(C)C)NC(=O)[C@H](CC(C)C)NC(=O)[C@H](CC(C)C)NC(=O)[C@H](CCC(N)=O)NC(=O)[C@@H]1CCCN1C(=O)[C@H](CC(C)C)NC(=O)[C@H](CC(=O)O)NC(=O)[C@@H](NC(=O)[C@H](CO)NC(=O)[C@@H](NC(=O)[C@@H]1CCCN1C(=O)[C@@H]1CCCN1C(=O)CNC(=O)[C@@H]1CCC(=O)N1)[C@@H](C)CC)[C@@H](C)CC)[C@@H](C)CC)[C@@H](C)CC)[C@@H](C)O)C(N)=O` [compound 196], the values for the maximum response (Emax) at CRF2R and on CRF1R were 97% and 96%, respectively.

A word on the EC50: it is the concentration needed to bring the measured effect to its halfway point. Consider `CC[C@H](C)[C@H](NC(=O)[C@@H](NC(=O)[C@H](CC(=O)O)NC(=O)[C@H](CC(C)C)NC(=O)[C@H](CC(C)C)NC(=O)[C@H](CC(C)C)NC(=O)[C@H](CCCNC(=N)N)NC(=O)[C@H](CC(N)=O)NC(=O)[C@H](CC(N)=O)NC(=O)[C@H](C)NC(=O)[C@H](C)NC(=O)[C@H](CCC(N)=O)NC(=O)[C@H](CCC(N)=O)NC(=O)[C@H](CCCCN)NC(=O)[C@H](CCC(=O)O)NC(=O)[C@H](CCCCN)NC(=O)[C@H](CCC(=O)O)NC(=O)[C@H](CCC(N)=O)NC(=O)[C@H](CCCCN)NC(=O)[C@H](CCC(=O)O)NC(=O)[C@@H](NC(=O)[C@H](CCC(=O)O)NC(=O)[C@@H](NC(=O)[C@H](CCSC)NC(=O)[C@H](CCCCN)NC(=O)[C@H](CCCNC(=N)N)NC(=O)[C@H](CC(C)C)NC(=O)[C@H](CC(C)C)NC(=O)[C@H](Cc1c[nH]c2ccccc12)NC(=O)[C@@H](NC(=O)[C@@H]1CCCN1C(=O)[C@H](CC(C)C)NC(=O)[C@H](CC(=O)O)NC(=O)[C@@H](NC(=O)[C@H](CO)NC(=O)[C@@H](NC(=O)[C@@H]1CCCN1C(=O)[C@@H]1CCCN1C(=O)CNC(=O)[C@@H]1CCC(=O)N1)[C@@H](C)CC)[C@@H](C)CC)[C@@H](C)O)[C@@H](C)CC)[C@@H](C)CC)[C@@H](C)O)C(N)=O` [compound 41], for which, at CRF2R, the EC50 is 0.0183 µM and the maximum response (Emax) amounted to 100%. At CRF1R, the concentration for a half-maximal effect (EC50) is greater than 1 µM and the Emax worked out at 43%.

On to `CC[C@H](C)[C@H](NC(=O)[C@@H](NC(=O)[C@H](CC(=O)O)NC(=O)[C@H](CC(C)C)NC(=O)[C@H](CC(C)C)NC(=O)[C@H](CC(C)C)NC(=O)[C@H](CCCNC(=N)N)NC(=O)[C@H](CC(N)=O)NC(=O)[C@H](CC(N)=O)NC(=O)[C@H](C)NC(=O)[C@H](C)NC(=O)[C@H](CCC(N)=O)NC(=O)[C@H](CCC(N)=O)NC(=O)[C@H](CCCCN)NC(=O)[C@H](CCC(=O)O)NC(=O)[C@H](CCCCN)NC(=O)[C@H](CCC(=O)O)NC(=O)[C@H](CCC(N)=O)NC(=O)[C@H](CCCCN)NC(=O)[C@H](CCC(=O)O)NC(=O)[C@@H](NC(=O)[C@H](CCC(=O)O)NC(=O)[C@@H](NC(=O)[C@H](CCSC)NC(=O)[C@H](CCCCN)NC(=O)[C@H](CCCNC(=N)N)NC(=O)[C@H](CC(C)C)NC(=O)[C@H](CC(C)C)NC(=O)[C@H](Cc1ccc(O)cc1)NC(=O)[C@H](Cc1ccc(O)cc1)NC(=O)[C@@H]1CCCN1C(=O)[C@H](CC(C)C)NC(=O)[C@H](CC(=O)O)NC(=O)[C@@H](NC(=O)[C@H](CO)NC(=O)[C@@H](NC(=O)[C@@H]1CCCN1C(=O)[C@@H]1CCCN1C(=O)CNC(=O)[C@@H]1CCC(=O)N1)[C@@H](C)CC)[C@@H](C)CC)[C@@H](C)CC)[C@@H](C)CC)[C@@H](C)O)C(N)=O` [compound 40], for which, at CRF2R, it took 0.00695 µM to reach a half-maximal effect (EC50) and the maximal effect (Emax) stood at 93%. On CRF1R, the half-maximal effective concentration (EC50) turned out to be 0.102 µM and the Emax was determined as 99%.

Take `CC[C@H](C)[C@H](NC(=O)[C@H](CCCNC(=N)N)NC(=O)[C@H](C)NC(=O)[C@H](CC(C)C)NC(=O)[C@H](CC(C)C)NC(=O)[C@H](CCCNC(=N)N)NC(=O)[C@H](C)NC(=O)[C@H](CC(N)=O)NC(=O)[C@H](CC(N)=O)NC(=O)[C@H](C)NC(=O)[C@H](C)NC(=O)[C@H](CCC(N)=O)NC(=O)[C@H](CCC(N)=O)NC(=O)[C@H](CCCCN)NC(=O)[C@H](CCC(=O)O)NC(=O)[C@H](CCCCN)NC(=O)[C@H](CCC(=O)O)NC(=O)[C@H](CCC(N)=O)NC(=O)[C@H](CCCCN)NC(=O)[C@H](CCC(=O)O)NC(=O)[C@@H](NC(=O)[C@H](CCC(=O)O)NC(=O)[C@@H](NC(=O)[C@@H](NC(=O)[C@H](CCCCN)NC(=O)[C@H](CCCNC(=N)N)NC(=O)[C@H](CC(C)C)NC(=O)[C@H](CC(C)C)NC(=O)[C@H](CCC(N)=O)NC(=O)[C@H](CC(C)C)NC(=O)[C@@H]1CCCN1C(=O)[C@@H](NC(=O)[C@H](CC(=O)O)NC(=O)[C@@H](NC(=O)[C@H](CO)NC(=O)[C@@H](NC(=O)[C@@H]1CCCN1C(=O)[C@@H]1CCCN1C(=O)CNC(=O)[C@@H]1CCC(=O)N1)[C@@H](C)CC)[C@@H](C)CC)C(C)C)C(C)C)[C@@H](C)CC)[C@@H](C)CC)C(N)=O` [compound 381]: the EC50 was 0.0127 µM on CRF2R and no less than 1 µM at CRF1R. Moreover, the maximal response (Emax) was 99% at CRF2R and 27% at CRF1R.

In the case of `CC[C@H](C)[C@H](NC(=O)[C@@H](NC(=O)[C@H](CC(=O)O)NC(=O)[C@H](CC(C)C)NC(=O)[C@H](CC(C)C)NC(=O)[C@H](CC(C)C)NC(=O)[C@H](CCCNC(=N)N)NC(=O)[C@H](CC(N)=O)NC(=O)[C@H](CC(N)=O)NC(=O)[C@H](C)NC(=O)[C@H](C)NC(=O)[C@H](CCC(N)=O)NC(=O)[C@H](CCC(N)=O)NC(=O)[C@H](CCCCN)NC(=O)[C@H](CCC(=O)O)NC(=O)[C@H](CCCCN)NC(=O)[C@H](CCC(=O)O)NC(=O)[C@H](CCC(N)=O)NC(=O)[C@H](CCCCN)NC(=O)[C@H](CCC(=O)O)NC(=O)[C@@H](NC(=O)[C@H](CCC(=O)O)NC(=O)[C@@H](NC(=O)[C@H](CCSC)NC(=O)[C@H](CCCCN)NC(=O)[C@H](CCCNC(=N)N)NC(=O)[C@H](CC(C)C)NC(=O)[C@H](CC(C)C)NC(=O)[C@H](CCC(N)=O)NC(=O)[C@@H](NC(=O)[C@@H]1CCCN1C(=O)[C@H](CC(C)C)NC(=O)[C@H](CC(=O)O)NC(=O)[C@@H](NC(=O)[C@H](CO)NC(=O)[C@@H](NC(=O)[C@@H]1CCCN1C(=O)[C@@H]1CCCN1C(=O)CNC(=O)[C@@H]1CCC(=O)N1)[C@@H](C)CC)[C@@H](C)CC)[C@@H](C)O)[C@@H](C)CC)[C@@H](C)CC)[C@@H](C)O)C(N)=O` [compound 72], the Emax on CRF2R came to 55%; at CRF1R it was 4%.

As to `CC[C@H](C)[C@H](NC(=O)[C@H](CCC(=O)O)NC(=O)[C@@H](NC(=O)[C@H](CC(C)C)NC(=O)[C@@H](NC(=O)[C@H](CCCNC(=N)N)NC(=O)[C@H](CC(C)C)NC(=O)[C@H](CC(C)C)NC(=O)[C@H](CCC(N)=O)NC(=O)[C@H](Cc1ccccc1)NC(=O)[C@@H]1CCCN1C(=O)[C@H](CC(C)C)NC(=O)[C@H](CC(=O)O)NC(=O)[C@@H](NC(=O)[C@H](CO)NC(=O)[C@@H](NC(=O)[C@@H]1CCCN1C(=O)[C@@H]1CCCN1C(=O)CNC(=O)[C@@H]1CCC(=O)N1)[C@@H](C)CC)[C@@H](C)CC)[C@@H](C)CC)[C@@H](C)CC)C(=O)N[C@@H](CCC(=O)O)C(=O)N[C@@H](CCCCN)C(=O)N[C@@H](CCC(N)=O)C(=O)N[C@@H](CCC(=O)O)C(=O)N[C@@H](CCCCN)C(=O)N[C@@H](CCC(=O)O)C(=O)N[C@@H](CCCCN)C(=O)N[C@@H](CCC(N)=O)C(=O)N[C@@H](CCC(N)=O)C(=O)N[C@@H](C)C(=O)N[C@@H](C)C(=O)N[C@@H](CC(N)=O)C(=O)N[C@@H](CC(N)=O)C(=O)N[C@@H](C)C(=O)N[C@@H](CC(C)C)C(=O)N[C@@H](CC(C)C)C(=O)N[C@@H](CC(C)C)C(=O)N[C@@H](C)C(=O)N[C@H](C(N)=O)[C@@H](C)O` [compound 358], the concentration giving a half-maximal response (EC50) was determined as 0.00556 µM at CRF2R and 0.099 µM on CRF1R. Also, the maximal effect (Emax) on CRF2R and at CRF1R was 100% in each case.
